{
  "source": "patent US8613821B2",
  "about": "“Basic metal nitrate, process for producing the same and gas generating agent composition” (dated 2013)",
  "origin": "cited, not measured here",
  "system": "rat",
  "data": [
    {"smiles": "NNc1nc(NN)nc(NN)n1", "values": [
      {"measurement": "LD50 (oral-rat)", "result": "3,161 mg/kg"}
    ]}
  ]
}
